Test results published in patent US6841567B1, “Cyclic substituted fused pyrrolocarbazoles and isoindolones” (Cephalon, Inc., priority 1999, dated 2005).

Amino acid sequences for entries named in this document (tags omitted). Residues count along the entry.
UniProt P35968, 834-1162 limits assumed: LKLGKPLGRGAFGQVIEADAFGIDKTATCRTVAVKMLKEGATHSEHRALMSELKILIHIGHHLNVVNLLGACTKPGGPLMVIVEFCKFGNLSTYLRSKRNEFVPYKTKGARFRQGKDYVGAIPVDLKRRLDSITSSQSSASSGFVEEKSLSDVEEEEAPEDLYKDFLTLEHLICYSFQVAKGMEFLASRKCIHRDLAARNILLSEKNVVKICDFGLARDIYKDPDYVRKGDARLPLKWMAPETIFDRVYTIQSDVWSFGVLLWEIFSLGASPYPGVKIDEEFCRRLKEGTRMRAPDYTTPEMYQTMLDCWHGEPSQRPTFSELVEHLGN
UniProt P04629, 440-796 limits assumed: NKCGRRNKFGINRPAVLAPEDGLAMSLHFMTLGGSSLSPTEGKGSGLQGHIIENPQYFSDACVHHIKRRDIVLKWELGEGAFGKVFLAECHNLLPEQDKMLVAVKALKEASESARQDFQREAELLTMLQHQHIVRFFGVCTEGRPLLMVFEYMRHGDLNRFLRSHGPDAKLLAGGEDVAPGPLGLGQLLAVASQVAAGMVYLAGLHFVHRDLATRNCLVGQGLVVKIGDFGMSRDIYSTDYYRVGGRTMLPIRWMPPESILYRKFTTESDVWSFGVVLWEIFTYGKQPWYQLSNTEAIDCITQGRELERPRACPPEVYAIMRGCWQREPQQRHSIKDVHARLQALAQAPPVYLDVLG

Assays:
[1] = target: VEGF receptor (human flk-1, KDR, VEGFR2) kinase domain (Homo sapiens, UniProt P35968); assay: Inhibition of vascular endothelial growth factor receptor kinase activity (ELISA); conditions: read-out: VEGF receptor kinase activity IC50; 40 μM ATP
Procedure: Cyclic substituted fused pyrrolocarbazole and isoindolone compounds were examined for their inhibitory effects on the kinase activity of baculovirus-expressed VEGF receptor (human flk-1, KDR, VEGFR2) kinase domain using the procedure described for the trkA kinase ELISA assay described above. The kinase reaction mixture, consisting of 50 mM Hepes, pH 7.4, 40 μM ATP, 10 mM MnCl2, 0.1% BSA, 2% DMSO, and various concentrations of inhibitor, was transferred to PLC-γ/GST-coated plates. VEGFR kinase was added and the reaction was allowed to proceed for 15 min. at 37 C. Detection of phosphorylated product was accomplished by addition of antII-phosphotyrosine antibody (UBI). A secondary enzymeconjugated antibody was delivered to capture the antibody-phosphorylated PLC-γ/GST complex. The activity of the bound enzyme was measured via an amplified detection system (Gibco-BRL). Inhibition data were analyzed using the sigmoidal dose-response (variable slope) equation in GraphPad Prism.

[2] = target: baculovirus-expressed human trkA cytoplasmic domain (Homo sapiens, UniProt P04629); assay: Inhibition of trkA tyrosine kinase activity (ELISA-based assay); conditions: read-out: trkA kinase activity IC50; 40 μM ATP
Procedure: Selected cyclic substituted fused pyrrolocarbazole and isoindolone compounds were tested for their ability to inhibit the kinase activity of baculovirus-expressed human trkA cytoplasmic domain using an ELISA-based assay as previously described (Angeles et al., Anal. Biochem. 236: 49-55, 1996). Briefly, the 96-well microtiter plate was coated with substrate solution (recombinant human phospholipase C-γ1/glutathione S-transferase fusion protein (Rotin et al., EMBO J., 11: 559-567, 1992). Inhibition studies were performed in 100 μl assay mixtures containing 50 mM Hepes, pH 7.4, 40 μM ATP, 10 mM MnCl2, 0.1% BSA, 2% DMSO, and various concentrations of inhibitor. The reaction was initiated by addition of trkA kinase and allowed to proceed for 15 minutes at 37° C. An antibody to phosphotyrosine (UBI) was then added, followed by a secondary enzyme-conjugated antibody, alkaline phosphatase-labelled goat antII-mouse IgG (Bio-Rad). The activity of the bound enzyme was measured via an amplified detection system (Gibco-BRL). Inhibition data were analyzed using the sigimoidal dose-response (variable slope) equation in GraphPad Prism.

CCOC(=O)C1C(=O)CCC1C1c2ccccc2-c2c3c(c4c([nH]c5ccccc54)c21)CNC3=O (centres unmarked)
IC50 [1]: 1880 nM | IC50 [2]: 315 nM
